{
  "sequences": {"note": "The chains behind the UniProt entries cited, without tags or fusion partners. Where a name states a change or a piece, a line headed by the entry shows the natural chain unless it says otherwise.", "UniProt A0A6C7EEG6": "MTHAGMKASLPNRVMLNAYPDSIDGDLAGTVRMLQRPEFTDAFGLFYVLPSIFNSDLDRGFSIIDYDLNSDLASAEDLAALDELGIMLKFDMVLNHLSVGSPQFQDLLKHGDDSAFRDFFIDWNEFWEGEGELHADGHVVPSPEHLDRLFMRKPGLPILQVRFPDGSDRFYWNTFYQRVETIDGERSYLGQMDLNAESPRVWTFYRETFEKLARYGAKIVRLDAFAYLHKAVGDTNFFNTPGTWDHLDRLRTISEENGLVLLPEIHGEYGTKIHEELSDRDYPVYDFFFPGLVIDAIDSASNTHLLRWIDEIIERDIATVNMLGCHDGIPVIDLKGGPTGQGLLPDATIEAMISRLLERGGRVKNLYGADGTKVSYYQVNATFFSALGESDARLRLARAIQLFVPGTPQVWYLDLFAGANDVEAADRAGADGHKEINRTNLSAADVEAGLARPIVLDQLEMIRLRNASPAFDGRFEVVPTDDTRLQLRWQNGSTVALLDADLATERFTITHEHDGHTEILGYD"},
  "source": "paper PMC6720575",
  "about": "(International Journal of Molecular Sciences, 2019)",
  "target": "T1, IcSPP; Ilumatobacter coccineus sucrose 6^F-phosphate phosphorylase (Ilumatobacter coccineus, UniProt A0A6C7EEG6)",
  "T1 construct": "gene YM304_32550",
  "settings": "phosphate ion in active site (Arg152, Glu264, Asp327, Tyr377, Gln378); reservoir contained 200 mM Na/K phosphate pH 7.5",
  "data": [
    {"smiles": "O=P(O)(O)O", "note": "[phosphate]", "values": [
      {"measurement": "X-ray crystal structure, 2.05 Å", "result": "In the structure of IcSPP, a phosphate ion is found interacting with Arg152, Glu264"}
    ]}
  ]
}
